What was measured:
[1] = molecular target: 6-His tagged Bcl w delta C10 protein (UniProt Q92843); test: Biacore solution competition; competitor immobilised mouse wtBimBH3
[2] = molecular target: GST tagged Bcl w delta C29 protein (UniProt Q92843); test: AlphaScreen competition, GST detection; competitor biotinylated Bim BH3-26 peptide
Bcl-2 ΔC22 = Bcl-2 ΔC22 (UniProt P10415); test: Biacore solution competition; competitor immobilised mouse wtBimBH3; head prints Bcl-w ΔC22, text says Bcl-2 ΔC22

hsBimL/Bod (81-106), … (peptide) was tested. Which IC50 [1] did it give?
The IC50 was 6 nM.

What about the IC50 [2] of the same substance?
Its IC50 is 0.1 nM.

What about the IC50 (Bcl-2 ΔC22) of the same substance?
The IC50 was 2.6 nM.
